Earlier results as cited in US20050266042A1, “Methods and apparatus for treatment of aneurysmal tissue” (Medtronic Vascular, Inc., priority 2004, published 2005).

Conditions: in vivo

SMILES: NCCCC[C@H](N[C@@H](CCc1ccccc1)C(=O)O)C(=O)N1CCC[C@H]1C(=O)O [lisinopril]
- route of elimination / clearance: cleared as the intact compound in the kidney
